Experimental data: PubChem BioAssay (NCI)
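Growth conditions: 96-well plates. Treatment: test compound, 48 hours, 5 concentrations. Analysis: linear interpolation between bracketing concentrations; unreached endpoints set to highest concentration. GI50 is the concentration that inhibits growth by half.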

Columns and labels:
Assay in all cases: NCI anticancer screen, dose series, 48 h; in the data active means GI50 below about 0.43 µM; inactive means the rest
786-0 renal = test system: 786-0 renal
A498 renal = test system: A498 renal
A549 NSCLC = test system: A549 NSCLC
ACHN renal = test system: ACHN renal
CCRF-CEM leukemia = test system: CCRF-CEM leukemia
COLO 205 colon = test system: COLO 205 colon
DU-145 prostate = test system: DU-145 prostate
EKVX NSCLC = test system: EKVX NSCLC
HCC-2998 colon = test system: HCC-2998 colon
HCT-116 colon = test system: HCT-116 colon
HL-60(TB) leukemia = test system: HL-60(TB) leukemia
HOP-62 NSCLC = test system: HOP-62 NSCLC
HOP-92 NSCLC = test system: HOP-92 NSCLC
HT29 colon = test system: HT29 colon
IGROV1 ovarian = test system: IGROV1 ovarian
K-562 leukemia = test system: K-562 leukemia
KM12 colon = test system: KM12 colon
LOX IMVI melanoma = test system: LOX IMVI melanoma
M14 melanoma = test system: M14 melanoma
MALME-3M melanoma = test system: MALME-3M melanoma
MCF7 breast = test system: MCF7 breast
MDA-MB-231 breast = test system: MDA-MB-231 breast
MDA-MB-435 = test system: MDA-MB-435
MOLT-4 leukemia = test system: MOLT-4 leukemia
NCI-H226 lung = test system: NCI-H226 lung
NCI-H23 lung = test system: NCI-H23 lung
NCI-H460 lung = test system: NCI-H460 lung
NCI/ADR-RES ovarian = test system: NCI/ADR-RES ovarian
OVCAR-4 ovarian = test system: OVCAR-4 ovarian
OVCAR-5 ovarian = test system: OVCAR-5 ovarian
OVCAR-8 ovarian = test system: OVCAR-8 ovarian
RPMI-8226 leukemia = test system: RPMI-8226 leukemia
RXF 393 renal = test system: RXF 393 renal
SF-268 CNS = test system: SF-268 CNS
SF-295 CNS = test system: SF-295 CNS
SF-539 CNS = test system: SF-539 CNS
SK-MEL-28 melanoma = test system: SK-MEL-28 melanoma
SK-MEL-5 melanoma = test system: SK-MEL-5 melanoma
SK-OV-3 ovarian = test system: SK-OV-3 ovarian
SN12C renal = test system: SN12C renal
SNB-19 CNS = test system: SNB-19 CNS
SNB-75 CNS = test system: SNB-75 CNS
SR leukemia = test system: SR leukemia
SW-620 colon = test system: SW-620 colon
T-47D breast = test system: T-47D breast
TK-10 renal = test system: TK-10 renal
U251 CNS = test system: U251 CNS
UACC-257 melanoma = test system: UACC-257 melanoma
UACC-62 melanoma = test system: UACC-62 melanoma
UO-31 renal = test system: UO-31 renal

Measured: GI50

O=C1NC(=NC2CCCCC2)C2(CCN(CCc3ccccc3)CC2)N1c1ccccc1
inactive: 786-0 renal > 100 µM | A498 renal 68.4 µM | A549 NSCLC > 100 µM | ACHN renal > 100 µM | CCRF-CEM leukemia > 100 µM | COLO 205 colon > 100 µM | DU-145 prostate > 100 µM | EKVX NSCLC > 100 µM | HCC-2998 colon > 100 µM | HCT-116 colon > 100 µM | HL-60(TB) leukemia 93.8 µM | HOP-62 NSCLC > 100 µM | HOP-92 NSCLC > 100 µM | HT29 colon 51 µM | IGROV1 ovarian > 100 µM | K-562 leukemia 99.4 µM | KM12 colon 59.5 µM | LOX IMVI melanoma > 100 µM | M14 melanoma > 100 µM | MALME-3M melanoma > 100 µM | MCF7 breast > 100 µM | MDA-MB-231 breast > 100 µM | MDA-MB-435 = > 100 µM | MOLT-4 leukemia 60.1 µM | NCI-H226 lung > 100 µM | NCI-H23 lung > 100 µM | NCI-H460 lung > 100 µM | NCI/ADR-RES ovarian 46.1 µM | OVCAR-4 ovarian 92.2 µM | OVCAR-5 ovarian > 100 µM | OVCAR-8 ovarian > 100 µM | RPMI-8226 leukemia 77.4 µM | RXF 393 renal > 100 µM | SF-268 CNS > 100 µM | SF-295 CNS > 100 µM | SF-539 CNS > 100 µM | SK-MEL-28 melanoma > 100 µM | SK-MEL-5 melanoma > 100 µM | SK-OV-3 ovarian > 100 µM | SN12C renal > 100 µM | SNB-19 CNS 60.9 µM | SNB-75 CNS > 100 µM | SR leukemia 65 µM | SW-620 colon > 100 µM | T-47D breast 51.7 µM | TK-10 renal > 100 µM | U251 CNS 79.1 µM | UACC-257 melanoma 60.8 µM | UACC-62 melanoma 78.8 µM | UO-31 renal 21.7 µM
